Data: IntAct's records for PubMed 15901672

B1: Bcl-2 homologous antagonist/killer (Homo sapiens), Q16611 (parent)
chain: MASGQGPGPPRQECGEPALPSASEEQVAQDTEEVFRSYVFYRHQQEQEAEGVAAPADPEMVTLPLQPSSTMGQVGRQLAIIGDDINRRYDSEFQTMLQHLQPTAENAYEYFTKIATSLFESGINWGRVVALLGFGYRLALHVYQHGLTGFLGQVTRFVVDFMLHHCIARWIAQRGGWVAALNLGNGPILNVLVVLGVVLLGQFVVRRFFKS

Variants of: B1
Conditions: with q07817-1 BCL2L1, Q07817-1
In the case of L78A, the “effect of a mutation on the interaction” value is reported as “decreasing interaction”.
